Experiments:
[1] = target: Tyrosine-protein phosphatase non-receptor type 11 (Homo sapiens, UniProt Q06124, K364R); assay: Inhibition of SHP2 K364R mutant
[2] = target: T1, Tyrosine-protein phosphatase non-receptor type 11 (Homo sapiens, UniProt Q06124); assay: Competitive inhibition at SHP2 catalytic domain assessed as inhibition of pNPP to p-nitrophenol conversion by spectrophotometry
[3] = target: T1, Tyrosine-protein phosphatase non-receptor type 11; assay: Inhibition of SHP2 catalytic domain assessed as inhibition of pNPP to p-nitrophenol conversion after 5 mins by spectrophotometry
[4] = target: T1, Tyrosine-protein phosphatase non-receptor type 11; assay: Reversible inhibition at SHP2 catalytic domain assessed as inhibition of pNPP to p-nitrophenol conversion by spectrophotometry

By UniProt entry, the sequences of proteins in these tests, tags left out. Where a name states a change or a piece, a line headed by the entry shows the natural chain unless it says otherwise.
UniProt Q06124, whole entry: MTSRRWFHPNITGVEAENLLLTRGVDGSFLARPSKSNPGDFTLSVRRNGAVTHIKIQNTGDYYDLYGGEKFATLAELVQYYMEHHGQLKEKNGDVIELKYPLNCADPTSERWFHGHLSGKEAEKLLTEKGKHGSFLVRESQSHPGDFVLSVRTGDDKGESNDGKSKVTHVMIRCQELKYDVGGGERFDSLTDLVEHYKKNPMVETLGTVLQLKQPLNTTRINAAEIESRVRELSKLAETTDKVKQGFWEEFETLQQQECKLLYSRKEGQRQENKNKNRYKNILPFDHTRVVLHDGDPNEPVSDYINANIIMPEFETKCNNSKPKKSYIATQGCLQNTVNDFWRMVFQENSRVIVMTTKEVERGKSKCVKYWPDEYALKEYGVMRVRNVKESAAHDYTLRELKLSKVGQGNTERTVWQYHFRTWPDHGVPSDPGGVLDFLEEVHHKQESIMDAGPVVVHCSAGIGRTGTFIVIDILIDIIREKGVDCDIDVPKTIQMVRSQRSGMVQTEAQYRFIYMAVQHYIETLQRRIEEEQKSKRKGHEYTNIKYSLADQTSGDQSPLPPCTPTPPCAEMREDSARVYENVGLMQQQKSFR

## Cc1cc(S(=O)(=O)O)c(S(=O)(=O)O)cc1N1N=C(C(=O)O)CC1=O
[1]
  IC50: 26 µM
[2]
  Ki: 4.6 µM
[3]
  IC50: 8.3 µM
[4]
  Ki: 4.6 µM
